# Literature values, collected in US9386796B2, “Method for infusing calcium phosphate in water, juices and water beverages” (priority 2003, dated 2016).
# Conditions: after ingestion of tablets
substance,measurement,value
calcium carbonate,absorption,about 28%
